We go through 2 molecules from patent US4889861A, “Substituted imidazo[1,5-a]pyridine derivatives and other substituted bicyclic derivatives and their use as aromatase inhibitors” (Ciba-Geigy Corp., priority 1987, dated 1989).

The term minimal effective dose denotes the smallest amount tested that counted as effective. Low readings indicate an effect from little substance, high ones a need for much substance.

The assay has as its system aromatase. As to the kind of experiment: in vivo inhibition of aromatase activity: suppression of ovarian estrogen content of PMS-hCG primed female rats. The arrangement: species or system rat.

Each structure is given as a SMILES string.

For `N#Cc1ccc(C2CCCc3cncn32)cc1` (racemic) [5-(p-Cyanophenyl)-5,6,7,8-tetrahydroimidazo[1,5-a]-pyridine], under “rat, in vivo”, the “inhibition of estrogen synthesis” value is “statistically significant inhibition of estrogen synthesis”.
For the molecule `Brc1ccc(C2CCCc3cncn32)cc1` (centres unmarked) [Example 17, 5-(p-Bromophenyl)-5,6,7,8-tetrahydroimidazo[1,5-a]-pyridine], under “Rattus norvegicus, po, aromatase inhibition (suppression of ovarian estrogen content of female rats)”, the minimal effective dose turned out to be 0.133 mg/kg.
